Test results published in patent US20220387618A1, “METHODS OF TREATING HER2 POSITIVE BREAST CANCER WITH TUCATINIB IN COMBINATION WITH AN ANTI-HER2 ANTIBODY-DRUG CONJUGATE” (Seagen Inc., priority 2019, published 2022).

System: BT-474 breast cancer cells
Experiment: Intracellular drug measurement of the T-DM1 adduct Lys-MCC-DM1 by mass spectrometry
Assay type: cell-based
Conditions: BT-474 cell lysates
Protocol: To directly measure the rates of ADC catabolism, cell lysates were analyzed by mass spectrometry for the T-DM1 adduct, Lys-MCC-DM1. FIGS. 11A, 11B, and 11C show a schematic of intracellular drug measurement studies, the structure of the primary T-DM1 catabolite, Lys-MCC-DM1, and the concentration of Lysine-MCC-DM1 over timepoints.
The cell lysates (e.g., BT-474) were analyzed by mass spectrometry for the T-DM1 adduct, Lys-MCC-DM1.
BT-474 breast cancer cells were treated with T-DM1 (3 ug/ml), in either the presence or absence of tucatinib (100 nM). Both supernatant and cells were harvested at timepoints spanning 72 hours for each treatment condition. Samples were analyzed by mass spectrometry to determine the concentration of T-DM1 adducts.

## ado-trastuzumab emtansine [T-DM1, reference compound]
  catabolism of T-DM1 in cells: majority of T-DM1 is proteolyzed into Lys-MCC-DM1 adduct; also recorded: predominantly proteolyzed into the Lys-MCC-DM1 adduct

Entries after “also recorded” stand apart in the source; their conditions may differ.
